# Measured values from patent publication US10160747B2, “Compounds and methods for kinase modulation, and indications therefor” (Plexxikon Inc., priority 2016, dated 2018).
# The chains behind the UniProt entries cited, without tags or fusion partners. A line that says so, or that is headed by a name, gives the form on record, which may keep a tag or linker.
# UniProt P36888, with tags, fused parts or gaps with the stated changes: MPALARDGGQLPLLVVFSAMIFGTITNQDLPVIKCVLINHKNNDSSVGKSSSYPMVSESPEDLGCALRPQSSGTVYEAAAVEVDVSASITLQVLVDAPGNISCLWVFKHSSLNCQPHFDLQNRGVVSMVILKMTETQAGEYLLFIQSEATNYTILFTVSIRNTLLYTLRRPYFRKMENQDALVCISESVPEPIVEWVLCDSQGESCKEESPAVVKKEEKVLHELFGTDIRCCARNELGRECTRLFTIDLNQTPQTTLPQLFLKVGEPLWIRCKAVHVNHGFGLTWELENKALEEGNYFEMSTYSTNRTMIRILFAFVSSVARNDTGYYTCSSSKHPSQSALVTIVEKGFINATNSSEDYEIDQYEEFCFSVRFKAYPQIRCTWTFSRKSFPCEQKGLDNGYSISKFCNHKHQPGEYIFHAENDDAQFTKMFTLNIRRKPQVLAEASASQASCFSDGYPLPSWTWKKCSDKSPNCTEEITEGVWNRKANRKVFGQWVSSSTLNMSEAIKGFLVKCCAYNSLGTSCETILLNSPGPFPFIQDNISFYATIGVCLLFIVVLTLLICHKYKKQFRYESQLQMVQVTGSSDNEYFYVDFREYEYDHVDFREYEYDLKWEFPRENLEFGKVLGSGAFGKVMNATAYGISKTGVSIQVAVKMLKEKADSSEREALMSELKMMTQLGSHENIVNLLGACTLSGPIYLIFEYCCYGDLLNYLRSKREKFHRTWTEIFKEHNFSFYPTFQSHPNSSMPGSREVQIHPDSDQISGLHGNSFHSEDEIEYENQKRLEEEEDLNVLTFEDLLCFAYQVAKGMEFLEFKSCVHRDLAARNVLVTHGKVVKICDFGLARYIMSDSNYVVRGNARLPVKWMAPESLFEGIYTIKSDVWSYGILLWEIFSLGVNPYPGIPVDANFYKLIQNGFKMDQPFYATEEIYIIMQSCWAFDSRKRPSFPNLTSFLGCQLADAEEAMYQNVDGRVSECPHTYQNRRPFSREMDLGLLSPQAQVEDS
# Key:
# [1] = test system: MOLM-14 F691L (endogenous FLT3 ITD and transfected FLT3 F691L); test: MOLM-14 F691L cell proliferation assay (CellTiter-Glo); conditions: read-out: MOLM-14 F691L 3 d-Growth GMean IC50
# Description: (§1) The FLT3 inhibitors may be assessed using the MOLM-14, Acute Myeloid Leukemia cell line that endogenously expresses FLT3 ITD or derivatives of the human FLT3 AML cell line which acquired the D835Y (activation loop) of F691L (gatekeeper) mutation after selection in escalating doses of the FLT3 Inhibitor AC220. FLT3 inhibitors may also be assessed using cells that are engineered to express mutant FLT3. For engineered cells, murine Ba/F3 cells were transfected with full-length FLT3 ITD/D835Y mutations. The parental BA/F3 cells are dependent upon Interleukin-3 (IL-3) for survival, and introduction of the FLT3 constructs rendered these cells dependent upon FLT3 kinase activity when cultured in the absences of IL-3. […] This inhibition is measured as a function of compound concentration to assess IC50 values. […]
# (§2) Cells were seeded at 1×10^4 cells per well of a 96 well cell culture plate in 50 μl of cell culture medium. […] The plates were read on a Tecan M1000 using Luminescence protocol modified to read 0.1 s per well. The luminescence reading assesses the ATP content, which correlates directly with cell number such that the reading as a function of compound concentration was used to determine the IC50 value.
# [2] = test system: MOLM-14 D835Y (endogenous FLT3 ITD and transfected FLT3 D835Y); test: MOLM-14 D835Y cell proliferation assay (CellTiter-Glo); conditions: read-out: MOLM-14 D835Y 3 d-Growth GMean IC50
# Description: as §1, §2
# BA/F3-FLT3-ITD + D835Y = BA/F3-FLT3-ITD + D835Y (Homo sapiens, UniProt P36888, D835Y, cells depend on it, form not given); test: Engineered BA/F3 cell growth assay, FLT3 ITD/D835Y; conditions: read-out: BaF3_FLT3 ITD/D835Y 3 d-Growth: IC50
# Description: as §1
# as §2, with “value. […]” for “value.”
structure (smiles),measurement,setting,value
Cn1cc(Nc2ncc(-c3ccc(CC(=O)NCc4cc(Cl)ccc4Cl)cc3)cn2)cn1,pIC50,[1],5.00 to 10.00
same,pIC50,[2],5.00 to 10.00
same,GI50,BA/F3-FLT3-ITD + D835Y,0.0001 to 10 µM

# pIC50: −log10 of the molar value.
